The values that follow come from US8906952B2, “Indole derivative or pharmaceutically acceptable salt thereof, preparation method thereof, and pharmaceutical composition for preventing or treating metabolic diseases containing same as active ingredient” (Korea Research Institute of Bioscience and Biotechnology, priority 2011, dated 2014).

Sequences of proteins named here, by UniProt entry; tags and fusion partners are left off.
UniProt O75907, whole entry: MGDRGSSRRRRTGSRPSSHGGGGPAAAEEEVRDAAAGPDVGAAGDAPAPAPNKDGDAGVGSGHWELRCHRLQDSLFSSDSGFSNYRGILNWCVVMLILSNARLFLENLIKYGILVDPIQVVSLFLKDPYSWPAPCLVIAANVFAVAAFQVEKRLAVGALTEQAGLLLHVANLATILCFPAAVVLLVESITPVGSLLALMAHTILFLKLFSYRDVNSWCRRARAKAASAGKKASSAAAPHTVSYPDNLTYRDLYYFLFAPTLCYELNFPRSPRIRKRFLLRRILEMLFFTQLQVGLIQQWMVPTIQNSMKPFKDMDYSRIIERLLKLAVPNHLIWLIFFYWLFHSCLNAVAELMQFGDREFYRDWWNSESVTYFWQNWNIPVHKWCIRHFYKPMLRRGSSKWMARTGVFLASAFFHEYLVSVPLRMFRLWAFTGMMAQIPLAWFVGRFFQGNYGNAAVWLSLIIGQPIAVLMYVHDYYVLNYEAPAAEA
UniProt Q96PD7, whole entry: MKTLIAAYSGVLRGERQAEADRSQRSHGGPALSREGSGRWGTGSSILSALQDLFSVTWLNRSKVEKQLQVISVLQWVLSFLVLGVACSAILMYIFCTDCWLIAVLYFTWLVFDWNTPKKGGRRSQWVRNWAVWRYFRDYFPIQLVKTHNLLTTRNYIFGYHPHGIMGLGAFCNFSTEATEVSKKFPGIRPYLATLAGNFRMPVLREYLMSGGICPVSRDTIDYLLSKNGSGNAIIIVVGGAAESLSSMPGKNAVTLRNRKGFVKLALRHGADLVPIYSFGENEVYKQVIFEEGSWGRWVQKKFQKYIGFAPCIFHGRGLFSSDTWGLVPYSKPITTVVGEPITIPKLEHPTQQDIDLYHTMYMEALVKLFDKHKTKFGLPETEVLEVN
UniProt Q9ERM3, whole entry: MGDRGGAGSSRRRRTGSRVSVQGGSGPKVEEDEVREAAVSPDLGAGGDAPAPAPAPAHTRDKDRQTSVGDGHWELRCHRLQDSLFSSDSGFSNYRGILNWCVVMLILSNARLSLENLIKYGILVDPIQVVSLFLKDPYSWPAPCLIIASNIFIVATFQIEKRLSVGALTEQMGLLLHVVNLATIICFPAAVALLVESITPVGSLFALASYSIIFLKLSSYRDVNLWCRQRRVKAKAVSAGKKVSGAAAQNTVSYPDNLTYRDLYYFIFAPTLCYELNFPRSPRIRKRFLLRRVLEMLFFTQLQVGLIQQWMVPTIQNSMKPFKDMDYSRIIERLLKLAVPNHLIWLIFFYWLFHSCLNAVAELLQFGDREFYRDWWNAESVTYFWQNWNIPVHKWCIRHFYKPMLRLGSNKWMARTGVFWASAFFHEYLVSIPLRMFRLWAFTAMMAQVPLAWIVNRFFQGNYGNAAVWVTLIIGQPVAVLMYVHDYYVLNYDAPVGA

Each structure is given as a SMILES string.

In assay [1] the test system is HepG2 cells. The assay is described as follows: DGAT inhibitory effect in HepG2 cells (triglyceride production from [14C]glycerol). To be noted: DMSO control = 100. The procedure: To investigate inhibition effect on intracellular DGAT enzyme activity of the compounds obtained in Examples 1-51, intracellular DGAT enzyme activity was measured using human-derived liver HepG2 cells.
HepG2 cells were purchased from ATCC, and cultured in 37° C., 5% CO2 incubator including minimum essential medium (2 mM L-glutamine, earle's BSS adjusted to contain 1.5 g/L sodium bicarbonate, 0.1 mM nonessential amino acids, and 1 mM sodium pyruvate) added with 10% fetal bovine serum (FBS) and 1% antibiotic (100 U/ml penicillin and 100 µg/ml streptomycin).
The intracellular DGAT enzyme activity was measured based on an amount of triglycerides produced in the cultured HepG2 cells, by adding 10 μM enzyme inhibitor compounds obtained in Examples 1-51, respectively, and then determining the effect of the enzyme inhibitors according to reduction rate of the triglyceride production.
Specifically, cells were seeded 1×10^6 cell/ml per well of the 24 well culture plate, and 24 hours after incubation, medium was exchanged with FBS-free DMEM medium, and sample of 0.2 mCi [^14C]glycerol (Amersham) was added as substrate, and the reaction was allowed to occur for 6 hr. The induced production of triglyceride was catalyzed by the DGAT enzyme, and DGAT enzyme activity was determined based on the amount of production of triglyceride which was measured based on the amount of radiation. […]

The target in assay [2] is human DGAT1 (Homo sapiens, UniProt O75907). The assay is described as follows: DGAT enzyme inhibition test, hDGAT1 enzyme from sf9 insect cells. To be noted: read-out: hDGAT-1 (sf9) IC50; enzyme from sf9 cells overexpressing hDGAT1. From the text: (§1) To investigate inhibitory effect of the compounds of Examples 1-33 against DGAT enzyme activity, DGAT enzyme inhibition and DGAT2 selectivity were investigated using zymogen including:
(§2) 1) hDGAT1 and hDGAT2 enzymes, derived from insect cell overexpressing human DGAT1 and DGAT2 (‘sf9’), respectively,
(§3) To be specific, for the purpose of measuring human-derived DGAT enzyme inhibitory activity, using the zymogen, including enzymes derived from insect cell overexpressing human DGAT1 and DGAT2 (‘sf9’), microsomal protein isolated from human duodenal adenocarcinoma (‘Hutu 80’), and microsomal protein isolated from rat, and according to Coleman et al., (Methods Enzymol., 98-103, 1992), and substrate including 1,2-diacylglycerol(Sigma, D0138) and [^14C]palmitoyl-CoA (Amersham, CFA583), the amount of radiation of [^14C]triacylglycerol produced after enzymatic reaction was measured.
(§4) To be more specific, to the reaction solution containing 175 mM Tris-HCl (pH 8.0), 20 μl bovine serum albumin (10 mg/ml), 100 mM magnesium chloride, 30 μM [^14C]palmitoyl CoA (0.02 μCi, Amersham) and 200 μM 1,2-dioleoylglycerol, reagent dissolved in dimethylsulfoxide (10.0 μl) was added. […] After taking 0.65 ml supernatant from the decoction, the amount of radiation was measured with liquid scintillation counter (LSC). The DGAT inhibitory activity was calculated with Mathematical Expression 1 below: […]

Assay [3] concerns the target human DGAT2 (Homo sapiens, UniProt Q96PD7). Briefly: DGAT enzyme inhibition test, hDGAT2 enzyme from sf9 insect cells (DGAT2 selectivity). To be noted: enzyme from sf9 cells overexpressing hDGAT2.
Text: as §1, §2, §3, §4

Assay [4] addresses DGAT-1 (rat liver) (Rattus norvegicus, UniProt Q9ERM3). The assay is described as follows: DGAT enzyme inhibition test, rat liver-derived DGAT enzyme. To be noted: read-out: DGAT-1 (rat liver) IC50; rat liver microsomal protein.
Text: as §1
3) rat liver-derived DGAT enzyme.
as §3, §4
For orientation: Liver microsomes are a subcellular fraction often used to study metabolism.

Assay [5] addresses hDGAT-1 (HuTu 80) (Homo sapiens, UniProt O75907). Briefly: DGAT enzyme inhibition test, microsomal protein from human duodenal adenocarcinoma (Hutu 80). To be noted: read-out: hDGAT-1 (HuTu 80) IC50; microsomal protein from HuTu 80.
Text: as §1
2) DGAT enzyme derived from human duodenal adenocarcinoma (‘Hutu 80’), and
as §3, §4

In general, IC50 refers to the midpoint of a concentration-inhibition curve. Consider `COCCOc1ccc(C(=O)NN(C(=O)/C=C/c2cn(C(=O)OC(C)(C)C)c3ccccc23)C(C)C)cc1`, for which the “Triglyceride production rate (%)/HepG2 cells at 10 μM” value in assay [1] came out at 72.6%. In addition, the IC50 was over 100 µM in assay [2], 3.7 µM in assay [4] and 10 µM in assay [5]. Besides, the “hDGAT-2 (sf9) inhibition rate(%)at 10 μM” value in assay [3] was “— (—: no inhibition)”.
